Data published in patent EP4847499A1, “HETEROCYCLIC COMPOUND FOR INDUCING DEGRADATION OF KRAS PROTEIN” (dated 2026).

How the values were obtained:
Assay in all cases: Non-anchorage-dependent cell growth inhibition, spheroid 3D cell culture (CellTiter Glo 2.0)
[1] = system: human G12D mutant KRAS-positive pancreatic cancer line PK-59; settings: read-out: G12D (PK-59) IC50; PK-59, 3D spheroid, 6 days
From the text: (§1) Test Example 2: Evaluation of non-anchorage-dependent cell growth inhibitory effect on human G12V mutant KRAS-positive pancreatic cancer line PA-TU-8902, human G12D mutant KRAS-positive pancreatic cancer line PK-59, human G12C mutant KRAS-positive pancreatic cancer line MIA PaCa-2, human G12C mutant KRAS-positive lung cancer line NCI-H358, human G12D mutant KRAS-positive colorectal cancer line GP2d, human G13D mutant KRAS-positive colorectal cancer line LoVo, or human wild-type KRAS gene amplification-positive gastric cancer line MKN1 The non-anchorage-dependent cell growth inhibitory effect of test compounds was evaluated by spheroid 3D cell culture.
(§2) PA-TU-8902 cells or GP2d cells (ECACC, 95090714), Pk-59 cells (RIKEN BRC, RCB1901), MIA PaCa-2 cells (RIKEN BRC, RCB2094), NCI-H358 cells (ATCC, CRL-5807), LoVo cells (ATCC, CCL-229), or MKN1 cells (JCRB, JCRB0252) were seeded on low-cell-adhesive round bottom 384-well plates (Prime Surface: from Sumitomo Bakelite) at 36 µL/well to give 5 × 10^2 cells per well, and the PA-TU-8902 cells were cultured under the same conditions as in Test Example 1. The GP2d cells were cultured using DMEM medium containing 10% fetal bovine serum in the presence of 5% CO2 at 37°C. The PK-59 cells, MIA PaCa-2 cells, LoVo cells, NCI-H358 cells, or MKN1 cells were cultured using RPMI-1640 medium (from Sigma-Aldrich) containing 10% fetal bovine serum in the presence of 5% CO2 at 37°C.
(§3) The next day, the test compounds (10 points having final concentrations in the range of 10 µM to 0.03 nM) and DMSO, which was the solvent for the test compounds, as a negative control were diluted 100-fold with a fresh medium and were added at 4 µL to each well containing the PA-TU-8902 cells, PK-59 cells, MIA PaCa-2 cells, LoVo cells, NCI-H358 cells, or MKN1 cells. After culturing in the presence of 5% CO2 at 37°C for 6 days, CellTiter Glo 2.0 (from Promega) was added at 20 µL per well. After stirring with a plate mixer at room temperature for 1 hour, the luminescent signals were measured with ARVO X3 (from PerkinElmer).
(§4) With the signaling value in treatment with DMSO taken as a survival rate of 100% and with the signaling value in the medium alone without cells taken as a survival rate of 0%, the 50% inhibitory concentration (IC50) was calculated by Sigmoid-Emax model nonlinear regression analysis.

[2] = system: human G12V mutant KRAS-positive pancreatic cancer line PA-TU-8902; settings: read-out: G12V (PA-TU-8902) IC50; PA-TU-8902, 3D spheroid, 6 days
From the text: as §1, §2, §3, §4

[3] = system: human G13D mutant KRAS-positive colorectal cancer line LoVo; settings: read-out: G13D (LoVo) IC50, 3D spheroid, 6 days
From the text: as §1, §2, §3, §4

[4] = system: human G12C mutant KRAS-positive pancreatic cancer line MIA PaCa-2; settings: read-out: G12C (MIA PaCa-2) IC50; MIA PaCa-2, 3D spheroid, 6 days
From the text: as §1, §2, §3, §4

CN(C)CC(C)(C)COc1nc(N2CC[C@H]2C(N)=O)c2cc(C3CC3)c(-c3cc(O)cc4ccc(F)cc34)c(OCc3ccc(C(=O)N4CCC5(CC4)CN(c4cc6c(cc4F)c(N4CCC(=O)NC4=O)nn6C)CCO5)cc3)c2n1 (single isomer, unassigned)
IC50 [1]: 16 nM
IC50 [2]: 9.1 nM
IC50 [3]: 70 nM
IC50 [4]: 2.9 nM
